The values that follow are results of earlier work, collected in patent US20210379099A1 (priority 2020, published 2021).

The conditions of this series: cited from earlier work.

cucurbit[8]uril: the water solubility is under 10 µM.
